Experimental findings from PMC4929566, “The metabolome of [2-^14C](−)-epicatechin in humans: implications for the assessment of efficacy, safety, and mechanisms of action of polyphenolic bioactives” (Scientific Reports, 2016) are described below.

This data set in a line: Metabolite profiling and quantification in urine (HPLC-MS2 with on-line radioactivity detector). It counts as in vivo, humans. Particulars: human, oral 207 μmol 14C-EC, mean ± SEM n=8. As for the experimental part: The study was a single-center, open-label, and non-randomized study with two distinct elements: a run-in phase to establish a more defined dietary background of dietary flavanols and procyanidins and the subsequent ^14C-EC ADME study (Fig. 1B). Participants (n = 12) were enrolled in the run-in phase (day –17 to day –4) and asked to supplement their daily diet for 14 days with a commercially available flavanol-containing cocoa-based drink (250 mg cocoa flavanols; 40 mg of EC). This was followed by a 4-day period (day –4 to 0) of a low-flavanol diet. One day (study day -1) prior to the initialization of the ^14C-EC ADME study, all eligible participants were accommodated under controlled conditions at a metabolic research facility (Covance Clinical Pharmacology Inc., Wisconsin) until completion of the study. Based on the compliance of the first part of the study, 8 participants were selected to participate in the ^14C-EC ADME study. During the ^14C-EC ADME study (Fig. 1B.), volunteers received a low-flavanol, standardized high-fiber diet, and were encouraged to maintain an adequate level of hydration (water ad libitum). Volunteers were asked to fast for 8 h before the initiation of the study and for at least 4 h after the intake of the ^14C-EC test drink (water ad libitum). Venous blood samples were taken using Vacutainer collection tubes, containing potassium EDTA at 0 h (just prior to ^14C-EC ingestion), and at 0.25, 0.5, 1, 1.5, 2, 2.5, 3, 4, 6, 8, 10, 12, 16, 24, 36, and 48 h after test drink consumption. Plasma was obtained by whole blood centrifugation at 2000 × g for 15 min at 5 °C, separated into aliquots and stored at −80 °C until analysis. All urine and feces from the time just prior to the consumption of the test drink were collected at different time intervals for radioactivity and metabolite profiling. Clinical parameters and laboratory evaluations of participants were assessed at screening, on study day –1, and after completing the study, as detailed in Supplementary Methods.
Samples were processed as described previously[18] and analyzed by HPLC-MS^2 in conjunction with an on-line HPLC-radioactivity monitor as described in SI Materials and Methods. Identification of metabolites involved comparing the retention time with authentic standards and MS^2 fragmentation patterns (Supplementary Methods). Quantification of metabolites in urine was based on HPLC radioactivity peak area (limit of quantification: 10^3 dpm). Due to the low levels of radioactivity, quantification in plasma was based on targeted HPLC-MS^2 using standard curves obtained with authentic standards (Supplementary Methods).
HPLC-MS identifications of radiolabeled [2-14C](−)-epicatechin metabolites in urine Urine was analyzed with radioactivity and mass spectrometry (MS) detection using a 250 mm x 4.6 mm i.d. 5 µm Luna Phenyl-Hexyl column (Phenomenex, Macclesfield, UK) […]
formic acid. Metabolite identification was performed by 1) co-chromatography of metabolites with reference compounds and a comparison of their MS fragmentation patterns 2, 2) by comparing m/z fragmentation patterns with earlier in-house observed […]
patterns to databases of metabolites reported in earlier polyphenol feeding studies5-7. […]

On to “5-(Phenyl)-γ-valerolactone-sulfate-O-glucuronide-I”, for which the “Metabolite present in urine, collection period 0–48 h” value is recorded as 1.6 ± 0.7 μ mol. Moreover, where the note is “– = not detected”, the “Metabolite present in urine, collection period 0–4 h” value is on record as 0.1 ± 0.1 μ mol; the “Metabolite present in urine, collection period 4–8 h” value amounted to 0.9 ± 0.8 μ mol; the “Metabolite present in urine, collection period 8–12 h” value is reported as 0.2 ± 0.2 μ mol; the “Metabolite present in urine, collection period 12–24 h” value is given as 0.4 ± 0.3 μ mol.
